Reference: patent publication US20120114665A1

Columns and labels:
[1] = target: human RANKL (receptor activator of NF-κB ligand) (human) (UniProt O14788); assay: cell-based or functional assay
[2] = target: human RANKL (receptor activator of NF-κB ligand) (human) (UniProt O14788); assay: SPR (BIACORE), purified antibody, 25°C
[3] = target: human RANKL (receptor activator of NF-κB ligand) (human) (UniProt O14788); assay: SPR (BIACORE), purified antibody, 37°C
[4] = target: penta-his-tagged hRANKL (human); assay: competition ELISA: 150 pM his-hRANKL pre-mixed with antibody, free RANKL detected on hRANK-hFc plate
[5] = target: penta-his-tagged monkey (Macaca fascicularis) RANKL (Macaca fascicularis); assay: competition ELISA: 150 pM his-mfRANKL pre-mixed with antibody, free RANKL detected on hRANK-hFc plate
[6] = target: human RANKL (receptor activator of NF-κB ligand) (human) (UniProt O14788); assay: SPR (BIACORE), purified antibody, 25°C; 25° C.

Row | IC50, hRANKL-inducible luciferase activity in HK293/RANK/NFκB-luc-eGFP cells [1] | Kd [2] | Kd [3] | IC50 [4] | IC50 [5] | Kd [6] | Substance
1 | 111 pM | 228 pM | 49.5 pM | 140 pM | 825 pM | – | H4H001G (antibody)
2 | 106 pM | – | 41 pM | 105 pM | 710 pM | 186 pM | H4H001P (antibody)
3 | 181 pM | 251 pM | 17 pM | 85 pM | 900 pM | – | H4H003P (antibody)
4 | 143 pM | 199 pM | 14.9 pM | 155 pM | 1270 pM | – | H4H004P (antibody)
